Experimental data taken from patent publication EP1881070A2.

Biological target: human zalpha11 receptor (human) (UniProt Q9HBE5)
Experiment: cell-based or functional assay

STAT luciferase reporter response of BaF3/KZ134/Zalpha11 cells, BHK570 conditioned media (fold over media-only control): 40
proliferation of BaF3/Zalpha11 cells (Alamar Blue), BHK conditioned media (fold over background): 5
Substance: mouse zalpha11 Ligand (from UniProt Q9ES17 18-146)
